The record followed here is patent US20130261137A1, “Methods, Compounds and Compositions Relating to Activating a Latent Virus” (ULC BUSINESS PLC, priority 2010, published 2013).

In one assay the test system is JSC-1 cells. Description: Apoptosis of JSC-1 cells by flow cytometry with pan-caspase inhibitor. Particulars: Q-VD-OPH 100 nM, 40 h after treatment with UCLB-15026 800 nM or taxol 80 nM. Format: cell-based. (In general: A flow cytometer gives signals particle by particle.)
In the next assay the test system is HIV-1 LTR in ACH2 cells. Description: HIV-1 LTR induction assay, TAR RNA qPCR in ACH2 cells. Particulars: prostratin 1 μM, VPA 1.5 mM; for HIV-1 LTR activity, agents used singly (qPCR for TAR RNA): UCLB-15026. Background: Real-time PCR tracks product formation cycle by cycle.

Regarding `CC(C)[C@H](NC(=O)c1ccc2ccccc2n1)C(=O)N[C@@H](CC(=O)O)C(=O)COc1c(F)cccc1F` [Q-VD-OPH], the effect on apoptosis result in the assay with JSC-1 cells was “blocking apoptosis”.

Regarding `COc1ccc(-c2csc3c2-n2cccc2C3=O)cc1` [UCLB-15026], in the assay with HIV-1 LTR in ACH2 cells, the “LTR induction of 15026 with prostratin compared with prostratin plus VPA” value is recorded as “higher levels of LTR induction than prostratin plus VPA”; the “effect of combining 15026 with either prostratin or VPA on LTR activity” value is “potentiate the effect”; the “HIV-1 LTR activity, agents used singly (qPCR for TAR RNA)” value (from here on “HIV-1 LTR activity, agents used singly”) is given as “induced LTR activity”.

For the molecule `CCCC(CCC)C(=O)O` [VPA, valproic acid], the “HIV-1 LTR activity, agents used singly” value with HIV-1 LTR in ACH2 cells was “induced LTR activity”.

For `CC(=O)O[C@@]12C[C@@H](C)[C@@]3(O)[C@@H](C=C(CO)C[C@]4(O)C(=O)C(C)=C[C@@H]34)[C@@H]1C2(C)C` [prostratin], the “HIV-1 LTR activity, agents used singly” value in the assay with HIV-1 LTR in ACH2 cells is “induced LTR activity”.
